Data on one compound can be found in ChEMBL document CHEMBL5316347, “Design, Synthesis, and Biological Evaluation of Bipyridazine Derivatives as Stimulator of Interferon Genes (STING) Receptor Agonists” (J Med Chem, 2023).

By UniProt entry, the sequences of proteins in these tests, tags left out.
UniProt Q86WV6, whole entry, looked up, stated change not applied: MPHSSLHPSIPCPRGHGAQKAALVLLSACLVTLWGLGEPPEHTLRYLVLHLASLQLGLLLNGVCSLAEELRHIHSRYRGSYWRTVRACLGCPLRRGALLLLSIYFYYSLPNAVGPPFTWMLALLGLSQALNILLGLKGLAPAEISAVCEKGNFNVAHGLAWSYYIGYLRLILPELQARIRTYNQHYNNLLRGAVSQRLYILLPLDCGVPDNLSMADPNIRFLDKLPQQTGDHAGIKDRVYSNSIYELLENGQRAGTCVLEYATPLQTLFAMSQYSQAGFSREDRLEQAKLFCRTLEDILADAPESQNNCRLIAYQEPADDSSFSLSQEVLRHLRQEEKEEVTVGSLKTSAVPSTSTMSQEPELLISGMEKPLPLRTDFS
UniProt Q86WV6, whole entry G230A/R293Q: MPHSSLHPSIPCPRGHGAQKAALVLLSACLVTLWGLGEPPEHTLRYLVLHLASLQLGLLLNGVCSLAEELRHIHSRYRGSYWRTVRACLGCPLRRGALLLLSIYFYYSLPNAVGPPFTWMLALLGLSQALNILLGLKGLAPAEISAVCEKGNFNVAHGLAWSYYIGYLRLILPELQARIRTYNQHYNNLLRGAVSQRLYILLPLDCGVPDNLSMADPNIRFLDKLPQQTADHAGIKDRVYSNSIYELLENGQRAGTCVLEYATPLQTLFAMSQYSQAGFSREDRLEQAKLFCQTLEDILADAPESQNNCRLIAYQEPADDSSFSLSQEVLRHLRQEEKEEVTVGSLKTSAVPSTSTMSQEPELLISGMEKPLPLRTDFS
UniProt Q86WV6, whole entry R293Q: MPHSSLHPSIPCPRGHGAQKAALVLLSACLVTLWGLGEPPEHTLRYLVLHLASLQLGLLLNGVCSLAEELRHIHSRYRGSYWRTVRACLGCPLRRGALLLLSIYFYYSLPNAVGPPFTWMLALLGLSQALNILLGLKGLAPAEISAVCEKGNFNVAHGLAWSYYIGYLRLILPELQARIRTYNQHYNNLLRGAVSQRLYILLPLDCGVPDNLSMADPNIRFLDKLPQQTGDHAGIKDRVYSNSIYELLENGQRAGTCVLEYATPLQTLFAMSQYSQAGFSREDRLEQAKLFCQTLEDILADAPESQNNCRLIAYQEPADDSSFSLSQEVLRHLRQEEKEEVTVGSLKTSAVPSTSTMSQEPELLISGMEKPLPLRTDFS

Test [1] addresses Stimulator of interferon genes protein (Homo sapiens, UniProt Q86WV6). As to conditions: filed as agonist, dose 50.0 µM.
The target in test [2] is T1, Stimulator of interferon genes protein (Mus musculus, UniProt Q3TBT3).
T1 sequence (Q3TBT3 whole entry): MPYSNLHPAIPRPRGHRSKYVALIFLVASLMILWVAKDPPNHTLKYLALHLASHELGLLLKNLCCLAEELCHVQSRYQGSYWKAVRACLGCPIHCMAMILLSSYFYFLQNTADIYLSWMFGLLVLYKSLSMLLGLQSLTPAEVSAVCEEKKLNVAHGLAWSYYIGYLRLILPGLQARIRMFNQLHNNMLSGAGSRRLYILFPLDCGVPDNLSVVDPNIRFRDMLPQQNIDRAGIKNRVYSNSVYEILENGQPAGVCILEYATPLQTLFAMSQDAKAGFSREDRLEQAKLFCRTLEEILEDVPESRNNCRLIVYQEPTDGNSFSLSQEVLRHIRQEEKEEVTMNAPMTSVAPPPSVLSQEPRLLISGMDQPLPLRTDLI
Kind of test: Agonist activity at mouse STING in mouse RAW-Lucia ISG cells incubated for 24 hrs in presence of PMA by luciferase reporter assay. Format: cell-based.

Test [3] has as its system Stimulator of interferon genes protein (Homo sapiens), Q86WV6 [UNDEFINED MUTATION]. As to conditions: filed as agonist, dose 50.0 µM.
In test [4] the test system is Stimulator of interferon genes protein (Homo sapiens), Q86WV6 [G230A,R293Q]. The conditions noted are these: filed as agonist, dose 50.0 µM.
In test [5] the test system is Stimulator of interferon genes protein (Homo sapiens), Q86WV6 [R293Q]. As to conditions: filed as agonist, dose 50.0 µM.

The term ΔTm denotes the change in melting temperature against a reference sample. For orientation: EC50 means the concentration that produces a half-maximal response. As to `O=C(Nc1cc(F)c(F)cc1C(=O)O)c1ccc(-n2ccnc2)nn1`, the ΔTm in test [1] is 6 °C; in test [3], 8.5 °C; in test [4], 13.5 °C; in test [5], 6 °C. In test [2], the EC50 stood at 135 µM.
